The target in the data set is T1, hERG potassium channel (Homo sapiens, UniProt Q12809).
T1 construct: host or cells: HEK293
Description: Manual patch-clamp test of the inhibitory activity on hERG potassium channel. It is filed as cell-based. The following applies: HEK293 cells stably expressing hERG, pH 7.35, HEK293 cell line stably expressing the hERG ion channel, five concentrations 0.37 to 30 µM, n = 2. How it is done: Prior to the experiment, the cells were cultured at a density of 5 × 10^5 cells per 3.5 cm culture dish, induced with 1 µg/mL doxycycline for 48 hours, followed by digestion, and seeded onto glass slides for subsequent manual patch-clamp experiments.
Osmolality of the solutions was controlled between 280 and 300 mOsmol/kg. The solutions were filtered and stored at 4°C prior to use.
The stock solution was serially diluted 1:3 in DMSO as the solvent to obtain three intermediate solutions with concentrations of 3.33, 1.11, and 0.37 mM. Prior to the experiment, the test compound intermediate solutions were further diluted 1:1000 with extracellular fluid to prepare a series of working solutions.
Using a 10× objective lens, the tip of the glass electrode was located and positioned at the center of the field of view. […] Once the recorded current stabilized, the last five hERG current values were recorded and averaged as the final current value at a specific concentration. […]
After perfusion with blank solvent or compound solutions, the average of five consecutive stable current values was calculated as "tail currentblank" and "tail currentcompound", respectively.
The percentage of current inhibition was calculated using the following formula. tail current inhibition rate = (1−(tail currentcompound −tail currentpositive ctrl)/(tail currentblank −tail currentpositive ctrl)) × 100 [formula] […]

Amino acid sequences for entries named in this document (tags omitted). A change or cut given only in a name is not applied to a line headed by its entry.
UniProt Q12809: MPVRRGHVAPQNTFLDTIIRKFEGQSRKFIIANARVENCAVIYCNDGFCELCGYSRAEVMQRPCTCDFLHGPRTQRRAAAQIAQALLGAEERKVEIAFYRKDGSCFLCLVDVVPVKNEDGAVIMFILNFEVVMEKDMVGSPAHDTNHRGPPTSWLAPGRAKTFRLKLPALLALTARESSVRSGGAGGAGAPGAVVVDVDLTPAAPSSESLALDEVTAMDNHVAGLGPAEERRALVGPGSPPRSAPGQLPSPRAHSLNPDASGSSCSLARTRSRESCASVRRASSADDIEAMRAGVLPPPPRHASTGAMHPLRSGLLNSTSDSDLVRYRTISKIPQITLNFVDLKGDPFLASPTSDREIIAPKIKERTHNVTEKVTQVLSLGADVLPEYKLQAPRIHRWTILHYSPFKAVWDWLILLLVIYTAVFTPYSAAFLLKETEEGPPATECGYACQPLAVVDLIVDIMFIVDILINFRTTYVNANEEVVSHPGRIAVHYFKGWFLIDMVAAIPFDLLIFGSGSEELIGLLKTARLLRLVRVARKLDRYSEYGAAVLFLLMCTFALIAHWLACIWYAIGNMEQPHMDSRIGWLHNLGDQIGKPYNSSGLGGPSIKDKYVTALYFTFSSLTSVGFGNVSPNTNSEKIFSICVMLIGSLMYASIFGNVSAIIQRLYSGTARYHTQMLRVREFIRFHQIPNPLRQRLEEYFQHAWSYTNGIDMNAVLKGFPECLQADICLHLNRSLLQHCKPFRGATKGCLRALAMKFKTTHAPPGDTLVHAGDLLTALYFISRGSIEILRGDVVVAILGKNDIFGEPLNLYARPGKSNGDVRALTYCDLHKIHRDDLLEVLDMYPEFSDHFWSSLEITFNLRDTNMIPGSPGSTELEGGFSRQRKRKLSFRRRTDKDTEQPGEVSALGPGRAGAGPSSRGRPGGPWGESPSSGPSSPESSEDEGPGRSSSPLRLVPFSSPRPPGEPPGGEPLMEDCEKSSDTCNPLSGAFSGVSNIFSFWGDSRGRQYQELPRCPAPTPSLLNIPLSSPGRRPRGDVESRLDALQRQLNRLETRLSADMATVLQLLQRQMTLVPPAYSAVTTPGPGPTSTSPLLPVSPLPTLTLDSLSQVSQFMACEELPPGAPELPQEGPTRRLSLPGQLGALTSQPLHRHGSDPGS

In turn, `COc1cc(S(C)(=O)=O)ccc1NCC#Cc1nc2c(N[C@@H]3CCN(C)C[C@@H]3F)cccn2c1CC(F)(F)F` [Cpd-B] displayed an IC50 of 5.5 µM.

As to `CNC(=O)c1ccc(NCC#Cc2cc3c(N[C@@H]4CCN(C)C[C@@H]4F)cccn3c2CC(F)(F)F)c(OC)c1` [Cpd-C, 4-((3-(8-(((3S,4R)-3-Fluoro-1-methylpiperidin-4-yl)amino)-3-(2,2,2-trifluoroethyl)indolizin-2-yl)prop-2-yn-1-yl)amino)-3-methoxy-N-methylbenzamide], the IC50 turned out to be 1.4 µM.
